Drawing on US10188704B2, “Enhanced melanoma cancer prevention by novel melanotropins” (ARIZONA BOARD OF REGENTS ON BEHALF OF THE UNIVERSITY OF …, priority 2015, dated 2019), this text covers Emax for 1 molecule.

Amino acid sequences for entries named in this document (tags omitted).
UniProt P32245, whole entry: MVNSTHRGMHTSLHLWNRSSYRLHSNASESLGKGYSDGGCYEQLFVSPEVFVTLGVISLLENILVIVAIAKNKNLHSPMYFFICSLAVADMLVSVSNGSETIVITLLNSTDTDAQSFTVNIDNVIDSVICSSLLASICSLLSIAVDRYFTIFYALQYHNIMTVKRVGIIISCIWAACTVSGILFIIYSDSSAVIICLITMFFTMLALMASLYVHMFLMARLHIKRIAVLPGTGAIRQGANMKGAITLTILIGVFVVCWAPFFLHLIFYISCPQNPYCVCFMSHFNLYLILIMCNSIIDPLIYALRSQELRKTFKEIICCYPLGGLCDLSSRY

The target of this assay is hMC4R (Homo sapiens, UniProt P32245). As to the kind of experiment: cAMP assay (intracellular cAMP accumulation) at hMC4R. The class given is cell-based. Details: expressed in transfected cells. The conditions noted are these: Table 2; cAMP activity; read-out: hMC4R % max effect.

In the case of `CCCC[C@H](NC(=O)[C@@H](NC(=O)[C@@H](N)Cc1ccc(O)cc1)C(C)C)C(=O)NCC(=O)N[C@@H](Cc1cnc[nH]1)C(=O)N[C@H](Cc1ccc2ccccc2c1)C(=O)N[C@@H](CCCN=C(N)N)C(=O)N[C@H](Cc1c[nH]c2ccccc12)C(=O)N[C@@H](CC(=O)O)C(=O)N[C@@H](CCCN=C(N)N)C(=O)N[C@@H](Cc1ccccc1)C(=O)NCC(N)=O` [SEQ ID NO. 11, H-Tyr-Val-Nle-Gly-His-D-Nal(2′)-Arg-D-Trp-Asp-Arg-Phe-Gly-NH2], the Emax came to 18%.
